Test results as given in publication PMC10531346, “Structural Similarities and Overlapping Activities among Dihydroflavonol 4-Reductase, Flavanone 4-Reductase, and Anthocyanidin Reductase Offer Metabolic Flexibility in the Flavonoid Pathway” (International Journal of Molecular Sciences, 2023).

Tests used:
Assay in all cases: purified protein, by the assay type
[1] = test system: O=C1c2c(O)cc(O)cc2O[C@H](c2ccc(O)cc2)[C@H]1O; details: other: NADPH 2 mM, pH 7.0, 25 °C, 25.0 °C
NADH = details: other: cofactor varied 5 to 500 µM, DHQ constant at 1 mM; pH 7.0
NADPH = details: other: cofactor varied 5 to 500 µM, DHQ constant at 1 mM; pH 7.0

Substance: PvDFRa WT (Panicum virgatum)
- Km [1]: 191.2 ± 31.4 µM
- Km (NADH): 190.6 µM⁻¹
- kcat (NADH): 0.05158 s⁻¹
- Km (NADPH): 115.4 µM⁻¹
- kcat (NADPH): 0.0651 s⁻¹
